Laboratory results from ChEMBL document CHEMBL4814010, “The development of highly potent and selective small molecule correctors of Z α1-antitrypsin misfolding” (Bioorg Med Chem Lett, 2021).

Key:
Homo sapiens = organism: Homo sapiens; assay: Selectivity for Z variant alpha1-antitrypsin (unknown origin) over M variant alpha1-antitrypsin (unknown origin)
CHO = assay: Corrector activity of Z variant alpha1-antitrypsin misfolding (unknown origin) expressed in CHO cells assessed as inhibition of Z variant alpha1-antitrypsin polymerisation by measuring increase in Z alpha1 antitrypsin secretion relative to control; format: cell-based; details: Homo sapiens

Selectivity ratio (Homo sapiens): 50
SMILES: CCC[C@@H](NC(=O)c1cccc2c1CC(=O)N2)[C@@H](O)c1cccc(F)c1C
fold change (FC) (CHO): 3
